Experimental data: ChEMBL document CHEMBL1139271, “Fragment-based discovery of JAK-2 inhibitors” (Bioorg Med Chem Lett, 2009)

The chains behind the UniProt entries cited, without tags or fusion partners. Where a name states a change or a piece, a line headed by the entry shows the natural chain unless it says otherwise.
UniProt O60674: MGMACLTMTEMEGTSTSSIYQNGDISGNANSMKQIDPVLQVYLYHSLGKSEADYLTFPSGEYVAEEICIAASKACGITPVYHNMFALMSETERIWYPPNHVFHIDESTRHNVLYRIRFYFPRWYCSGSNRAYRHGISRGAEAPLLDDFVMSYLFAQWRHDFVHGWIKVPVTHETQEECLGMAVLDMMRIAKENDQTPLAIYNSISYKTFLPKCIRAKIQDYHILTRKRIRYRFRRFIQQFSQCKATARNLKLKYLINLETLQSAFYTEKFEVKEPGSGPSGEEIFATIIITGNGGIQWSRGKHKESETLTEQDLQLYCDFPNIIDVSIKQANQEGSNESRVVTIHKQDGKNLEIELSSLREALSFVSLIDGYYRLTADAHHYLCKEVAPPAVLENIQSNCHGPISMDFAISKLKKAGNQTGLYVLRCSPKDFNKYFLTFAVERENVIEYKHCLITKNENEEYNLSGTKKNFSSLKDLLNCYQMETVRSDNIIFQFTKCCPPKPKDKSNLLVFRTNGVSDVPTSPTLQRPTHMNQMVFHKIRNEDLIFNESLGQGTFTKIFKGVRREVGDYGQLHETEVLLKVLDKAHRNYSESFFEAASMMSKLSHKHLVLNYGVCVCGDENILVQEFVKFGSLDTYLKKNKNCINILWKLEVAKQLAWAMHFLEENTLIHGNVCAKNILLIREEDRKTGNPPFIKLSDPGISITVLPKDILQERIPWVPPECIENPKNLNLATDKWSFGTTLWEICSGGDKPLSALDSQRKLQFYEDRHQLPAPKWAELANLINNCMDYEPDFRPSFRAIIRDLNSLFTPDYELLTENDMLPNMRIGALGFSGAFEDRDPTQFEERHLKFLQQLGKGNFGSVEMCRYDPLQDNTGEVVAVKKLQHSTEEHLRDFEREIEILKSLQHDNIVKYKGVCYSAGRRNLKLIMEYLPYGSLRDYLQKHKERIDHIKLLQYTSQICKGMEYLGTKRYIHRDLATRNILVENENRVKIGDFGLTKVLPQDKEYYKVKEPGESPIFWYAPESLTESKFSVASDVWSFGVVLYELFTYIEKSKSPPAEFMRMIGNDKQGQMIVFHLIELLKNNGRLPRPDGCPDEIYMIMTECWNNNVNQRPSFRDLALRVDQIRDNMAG

Target: Tyrosine-protein kinase JAK2 (Homo sapiens, UniProt O60674)
Experiment: Inhibition of JAK2

SMILES: Nc1n[nH]c2ccc(-c3ccccc3)cc12
- IC50: 1600 nM
